Literature values as cited in article PMC3050579.

Sequences of proteins named here, by UniProt entry; tags and fusion partners are left off. A change or cut given only in a name is not applied to a line headed by its entry.
UniProt P61077: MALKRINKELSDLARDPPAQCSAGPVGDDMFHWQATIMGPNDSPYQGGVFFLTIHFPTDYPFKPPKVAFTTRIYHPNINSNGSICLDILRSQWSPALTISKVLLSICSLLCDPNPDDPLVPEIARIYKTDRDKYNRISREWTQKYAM

Biological target: UbcH5C (Homo sapiens) (UniProt P61077)
Conditions: cited from earlier work

For ubiquitin (from UniProt P0CG48), the Kd is listed as 300 µM.
